Yeast mating assay B: variants of the scFv Ab-14

The target is the same throughout: PDVDLGDISGINAS, from the HR2 region of SARS-CoV-2 spike.

Parent scFv Ab-14: VH joined to VL by a (GGGGS)3 linker. Changes lie in the light chain CDRs alone.
VH: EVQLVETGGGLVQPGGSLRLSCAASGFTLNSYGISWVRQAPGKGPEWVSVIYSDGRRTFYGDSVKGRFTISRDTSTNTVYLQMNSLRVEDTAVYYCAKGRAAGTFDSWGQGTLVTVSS
VL: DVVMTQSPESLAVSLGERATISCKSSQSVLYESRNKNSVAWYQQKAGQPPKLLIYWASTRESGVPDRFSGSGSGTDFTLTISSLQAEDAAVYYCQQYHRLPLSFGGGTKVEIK

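The variants were designed computationally from a first round of random CDR variants and then made and measured. Their group label is 14L_GP_Gibbs (GP: Gaussian process model; Gibbs: Gibbs sampling; a sequence that several methods proposed may carry one label only). Affinity was read by AlphaSeq, a pooled yeast mating assay with surface-displayed partners. Pairs that bind mate more often; barcode pairs of the diploids are counted by sequencing. Scores were corrected for input abundance and mapped to Kd with protein pairs of known affinity run in the same pool. Each pool was mated in six replicate cultures.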

The parent's light chain CDRs are KSSQSVLYESRNKNSVA, WASTRES, QQYHRLPLS; each variant's own CDRs replace them letter for letter.
Numbers give log10(Kd / nM), so 0 is 1 nM and 3 is 1 µM. Smaller is tighter.
Replicates are averaged; those with no signal do not enter the mean.
An entry "nd" has no value in the source: the pair was not observed among the diploids in that replicate. This suggests poor binding but is not conclusive.

CDR-L1	CDR-L2	CDR-L3	replicates, log10 nM	mean log10 Kd (nM)	control signals
KWSQGVMGESRNFNSVA	NASTRES	QQYHRLPLS	0.13 -0.11 -0.05 -0.18 -0.22 0.15	-0.05	3/18 (2.68)
KLQMSMLYESRMHNSVA	DASVRES	QQYHRLPLS	-0.17 -0.40 -0.31 -0.38 -0.41 -0.41	-0.35	1/18 (2.83)
KLSQSGLMESRNKNNVA	EASQRES	QQYHRLPLS	-0.20 -0.28 -0.40 -0.62 -0.47 -0.41	-0.40	1/18 (4.15)
YLSQSVQYESRNKNSVA	NASTREY	QQYHRLPLM	1.71 1.38 2.81 1.57 2.23 1.86	1.93	0/18
KFFQSQLYEQRNQNSVA	SASTRED	QQYHRLPLS	0.38 -0.11 0.25 0.08 0.27 0.33	0.20	2/18 (2.25)
KQSFSGGGGSRNKNSVA	KASTRES	QQYHRLPLS	1.85 2.22 2.00 1.85 2.02 2.14	2.01	2/18 (2.37)
KLYYSDGGLQRNKNAVA	EASTREM	QQYHRLPLS	-0.12 0.43 0.24 0.22 0.14 0.17	0.18	0/18
KISQSVGYEDRNKNSVA	NASQRMQ	QQYHRLPLS	0.86 0.69 0.50 0.18 0.69 0.79	0.62	2/18 (2.94)
KLSQSVLGQWRNFNSVA	HASTREQ	QDYHRLPLS	0.52 0.21 0.37 0.57 0.61 0.74	0.50	0/18
KVEMSVDYEDRNKNSVA	HASVRES	QQYHRLPLS	-0.10 -0.18 -0.10 -0.29 -0.28 -0.01	-0.16	1/18 (3.03)
KASPSEEYESRMKNSVA	NASTRYE	QQYHRLPLS	0.24 0.05 -0.08 -0.13 -0.27 -0.09	-0.05	0/18
LLSQSSGYEQRNKNSVA	DASTRLS	QAYHRLPLS	0.77 0.69 0.52 0.66 0.36 0.52	0.59	0/18
KLSTSVLYGKRNKNSVA	QASQRMS	QQYHRLPLS	1.49 0.93 1.57 0.21 1.48 1.43	1.19	0/18
KMSQSVDVLDRNKNSVA	NASTREM	QQYHRLPLS	-0.15 -0.06 -0.24 -0.34 -0.11 -0.18	-0.18	1/18 (2.91)
KLQNSFLYESRQKNNVA	EASQREM	QQYHRLPLS	1.20 0.81 0.89 0.61 0.71 1.02	0.87	1/18 (2.15)
KLSQSVDYLSRNMNNVA	NASTRES	QDYHRLPLS	0.36 0.07 0.23 0.10 0.06 0.41	0.20	3/18 (2.85)
KVDQLVDMESRNKNAVA	EASTRES	QQYHRLPLS	-0.06 -0.06 -0.27 -0.27 -0.27 0.03	-0.15	2/18 (2.72)
KSSGSVQGEDWNSNSVA	NASQRES	QQYHRLPLS	0.42 0.18 0.32 0.24 0.32 0.65	0.35	0/18
KLPQSWLYESQNSNSVA	HASQRED	QQYHRLPLS	-0.11 -0.32 -0.43 -0.35 -0.38 -0.18	-0.30	2/18 (2.91)
KLSQSQCYESRNKNNVA	NASDRMS	QQYHRLPLS	-0.12 -0.27 -0.27 -0.34 -0.30 -0.12	-0.24	1/18 (4.89)
KVPQSVLYESRNKNAVA	QASTRES	QDYHRLPLS	-0.03 -0.29 -0.22 -0.38 -0.34 -0.15	-0.23	1/18 (2.06)
KFSQLVLYEERMKNSVA	DASQRLS	QQYHRLPLS	0.09 0.05 -0.14 -0.09 0.11 0.21	0.04	1/18 (3.39)
IISQSMLYEPRNWNSVA	NASTRWS	QQYHRLPLS	0.68 0.74 0.50 0.49 0.61 0.60	0.60	2/18 (2.50)
KSDQEQLYENRMKNSVA	DASLRES	QQYHRLPLS	0.04 0.06 -0.26 -0.10 -0.18 0.24	-0.04	0/18
KVQMSWLMSSRNKNQVA	HASMRES	QQYHRLPLS	0.36 0.39 0.28 0.54 0.71 0.70	0.50	2/18 (2.43)
KLSQSVEYESRNKNSVA	EASTREY	QQYHRLPLA	0.47 0.46 0.37 0.27 0.29 0.59	0.41	1/18 (3.42)
MYSQSYGGEQRNKNSVA	HASTREE	QQYHRLPLS	-0.44 -0.56 0.03 -0.49 0.20 -0.22	-0.25	0/18
KYSFSDLNESRNSNSVA	EASTRES	QQYHRLPLS	0.78 0.77 1.26 0.95 0.54 0.70	0.83	0/18
KVSEEVLMGDRNKNSVA	KASTRES	QQYHRLPLS	0.12 -0.16 -0.15 -0.01 -0.10 0.22	-0.01	0/18
KIDQSELEESRNKNSVA	WATVRED	QQYHRLPLS	0.45 0.43 0.24 0.29 0.21 0.47	0.35	3/18 (3.74)
KLQNSQEYESRMKNSVA	NASQRLE	QQYHRLPLS	0.08 -0.15 -0.28 -0.20 -0.10 0.05	-0.10	1/18 (3.20)
KFQQSQLYEKRNQNSVA	SASYRLS	QQYHRLPLS	0.62 1.02 0.94 0.96 1.08 1.56	1.03	0/18
KASPSEMYESRMKNSVA	MASTRYE	QQYHRLPLS	0.51 0.36 0.37 0.41 0.81 0.94	0.57	1/18 (1.58)
KHSQSVLYESRVKNSVA	DASMRES	QQYHRLPLS	0.21 -0.36 0.01 0.22 -0.49 -0.25	-0.11	0/18
KVMQEMLYESRMANSVA	NASQRES	QQYHRLPLS	0.38 0.15 0.20 0.16 0.03 0.28	0.20	1/18 (2.18)
KLSMSQLYEWRNMNSVA	NASTREM	QQYHRLPLS	0.55 0.25 0.34 0.26 0.32 0.37	0.35	1/18 (1.81)
KFEQSWLYESRNVNSVA	QASTRMS	QQYHRLPLS	0.16 0.07 -0.04 -0.14 0.13 0.04	0.04	4/18 (3.73)
KLMQSHLYESRMANNVA	SASTREE	QQYHRLPLS	0.34 0.12 0.17 0.22 0.24 0.16	0.21	0/18
KGMGSMLYESRNKNSVA	NASQRES	QQYHRLPLS	-0.27 -0.11 -0.06 -0.46 -0.28 -0.04	-0.20	0/18
KLSQSQLYESRNHKSVA	NASTRVS	QQYHRLPLS	0.00 0.19 -0.05 -0.30 0.11 0.07	0.00	2/18 (2.81)
KLSPSVMYWMRNKNSVA	NASTRES	QQYHRLPLS	0.06 -0.25 -0.10 -0.30 -0.24 -0.02	-0.14	2/18 (3.02)
KVEQSNDYESRNKNSVA	NASQRLK	QQYHRLPLS	0.13 -0.24 -0.13 -0.35 -0.10 -0.05	-0.12	1/18 (2.76)
KMQASQGYESRNKNSVA	QASTRES	QQYHRLPLS	0.04 -0.04 0.04 0.00 -0.07 0.18	0.02	0/18
KLPQSMEYESRNKNSVA	SASTRES	QQYHRLPLS	0.13 -0.05 -0.10 -0.27 -0.27 -0.15	-0.12	1/18 (2.29)
KMENSNGYESRNKNSVA	NASTRMS	QQYHRLPLS	0.52 0.08 0.25 0.16 0.09 0.16	0.21	4/18 (3.84)
KLSQGVLMESRNKNSVA	EASCREE	QQYHRLPLS	1.93 1.45 1.30 1.67 0.99 2.28	1.60	0/18
KSSPSVLYESRNKASVA	DASTRES	QQYHRLPLS	nd nd nd nd 2.32 nd	2.32	0/18
KVSMQQLYSSRNKNSVA	DANTRES	QQYHRLPLS	0.32 -0.19 -0.20 -0.40 0.06 -0.09	-0.08	0/18
KMSQAWWYESRMKWSVA	NASLREQ	QQYHRLPLS	1.65 0.63 1.54 0.77 0.87 1.67	1.19	1/18 (1.66)

The authors averaged sequences with at least three values out of six and counted those with two or fewer as poor binders.
Background: pairings of all light chain designs with three empty control strains gave a value in 4% of cases (median 2.64, 5th percentile 1.59). Values in that range, when seen in few replicates, are hard to tell from nonspecific mating. Also given: how often the same scFv was detected with the empty control strains, with their mean in brackets.
Values of this round are not directly comparable with the first-round values of the same sequences.

The measurements come from Li et al. 2023 (doi:10.1038/s41467-023-39022-2) through the FLAb antibody collection.